Source: patent US4346097A, “Method for treating convulsions with pyrazole-4-carboxamide derivatives” (Warner-Lambert Company, priority 1980, dated 1982)

Experiment: Rotorod Test, TD50
Details: in vivo, median minimal neurotoxic dose
Excerpt: The term convulsions is intended to mean the characteristic body movements which are associated with the group of chronic central nervous system disorders termed, epilepsies.
These procedures are described in E. A. Swinyard, et al., Epilepsia, 19, 409 (1978), which is incorporated herein by reference. The TD50 is defined as the median minimal neurotoxic dose.

Compound: CCC1(c2ccccc2)C(=O)NC(=O)NC1=O [PHENOBARBITAL]
- TD50: 69 mg/kg
